In patent publication US7183251B1, “hCG therapy for the treatment of breast cancer” (Fox Chase Cancer Center, priority 1998, dated 2007):
Several values for one entry are separate records, joined by “and”; a condition that tells them apart may be missing. Identical values can stand only once.

Legend:
[1] = tested on: metastatic breast cancer; assay: Open-label study of r-hCG in metastatic breast cancer in postmenopausal women; format: in vivo, human; conditions: postmenopausal women with metastatic disease, Example 2
From the text: The primary objective of this study was to assess the effect of r-hCG on the tumor response rate of bi-dimensionally measurable or palpable lesions. The secondary objectives were: i.) to assess the effect of r-hCG treatment on symptoms caused by metastatic breast tumor lesions, ii.) to determine whether r-hCG exerts any adverse systemic effects, iii.) to measure time to tumor progression and, iv.) to determine the effects of r-hCG on endocrinology parameters and tumor markers.
Thirteen postmenopausal women diagnosed with biopsy-proven breast cancer and clinical evidence of metastatic disease were entered in the study. Patients are treated with 500 mcg of r-hCG three times per week for at least two months. Tumor assessment and measurement of target indicator lesions are performed every two months by X-ray, CT scan, MRI or physical examination. After 60 days of treatment, a re-evaluation of metastatic lesions is performed using the same diagnostic procedure(s). In the event of disease progression (i.e., appearance of new tumor or growth of indicator lesions by at least 25% in square dimensions) study treatment is discontinued, otherwise, treatment is continued, with patient re-evaluations every eight weeks, until progressive disease is noted.

[2] = tested on: CG-5 cells; assay: CG-5 cell growth experiments (cell counts with hemocytometer); format: cell-based, human; conditions: for inhibition of cell proliferation with respect to control: then 10^-7 M TAM
Description: Preliminary in vitro experiments were carried out on CG-5 cells, a variant of the MCF-7 cell line (Natoli C. et al., 1983, Breast Cancer Res. Treat. 3:23–32) characterized by a high degree of estrogen responsiveness and an appreciable content of estrogen, androgen, glucocorticoid and progesterone receptors.
Cells were routinely cultured in Dulbecco's modified Eagle's medium (DMEM) supplemented with 10% fetal calf serum (FCS) and antibiotics. For cell growth experiments, cells were plated out at the density of 50,000 cells/ml in the medium described above. Twenty-four hours later, the medium was replaced with fresh medium containing 5% charcoal-treated FCS(CH-FCS) plus a fixed concentration (10^−7 M) of Tamoxifen (TAM) and various concentrations (from 10 to 10,000 IU/ml) of hCG. Medium was renewed every 3 days. In the experiments concerning the effect of hCG and TAM sequentially added to CG-5 cells, cells were plated out at 50,000 cells/ml, as described above, and 24 hours later DMEM was changed with fresh medium containing 10 to 10,000 IU/ml of hCG. […] After 1 week of exposure to hCG, CG-5 cells were plated in medium supplemented which 10% FCS and antibiotics, and 24 hours later DMEM was replaced by fresh medium supplemented with 5% CE-FCS and a fixed concentration of TAM (10^−7 M). Medium was renewed every 3 days. In all experiments performed cells were counted, after 3 to 6 days, with the use of an hemocytometer.

[3] = tested on: carcinogen-induced rat mammary tumors; conditions: cited from earlier work
[4] = tested on: normal and neoplastic human breast epithelial cells; conditions: cited from earlier work
[5] = tested on: DMBA-induced rat mammary carcinomas; assay: Prevention of DMBA-induced rat mammary carcinomas (Regimens 1-3); format: in vivo
Description: Evaluation of the efficacy of r-hCG in the prevention of mammary cancer: Regimens 1–9 utilized in the experiments described below are shown schematically in FIG. 4. The animals utilized in Regimens 1–9 consisted of 450 intact virgin Sprague-Dawley rats that were purchased from Taconic Farms (New York, N.Y.).
The potential of hCG to inhibit the initiation of DMBA-induced rat mammary carcinomas was evaluated in intact virgin rats treated with placebo (Regimen 1); 100 IU r-hCG/day (Regimen 2), or 100 IU u-hCG/day (Regimen 3). All animals were injected daily for 21 days, starting when the rats were 45 days old. The carcinogen DMBA was administered as a single intragastric dose (8 mg/100 g body weight) given 21 days after the last injection of placebo or hormone. Under these protocols the first effect evaluated was the appearance of tumors detected by palpation and their location with regards to specific mammary glands. Other parameters evaluated were the rate of tumor growth, tumor ulceration, and tumor regression or ulcer healing and tumor necrosis in response to the hormonal treatment.
All treatments were initiated when the animals were 45 days old. For Regimen 1 fifty rats received a daily intraperitoneal (ip) injection of 0.5 ml placebo for 21 days. Under Regimens 2 and 3 the same number of animals received for 21 days 100 IU/day of r-hCG or u-hCG (Steris Laboratories, Phoenix, Ariz.) respectively. Twenty-one days after completion of the last injection, when the animals were 87 days old, the three groups of animals were inoculated with a single intragastric (ig) dose of 8 mg DMBA (Sigma Chemical Co., St. Louis, Mo.) per 100 g body weight (bw). Thereafter all the animals were palpated periodically for detection of tumor development and determination of tumor growth rate. Final tumorigenic response was evaluated 15 weeks after administration of DMBA.
(§1) Evaluation of Final Tumorigenic Response. […] The tumors were rapidly dissected, measured in three dimensions, and serially sliced. Adjacent slices were:
(§2) The following criteria were utilized for evaluating the final tumorigenic response:
(§3) 1. Rate of tumor growth, based on sequential measurement of the two largest diameters of tumors in live animals utilizing a Vernier Caliper and expressing the results in mm.
(§4) 2. Final tumor size, based on measurement of the length, width and height of dissected tumors with a Vernier Caliper. Results were expressed in mm. A progressively smaller tumor size in successive measurements was indicative of tumor regression. Palpable tumors that had disappeared at the time of dissection were considered to be 100% regressed. The mammary tissue in which the tumor had been originally identified was fixed in 10% NBF for histopathological analysis.
(§5) 5. Statistical Analysis. The significance of the differences in tumorigenic response among the groups was determined by Chi Square analysis and Student's T test.

[6] = tested on: DMBA-induced rat mammary carcinomas; assay: Effect on early tumor development after DMBA (Regimens 4-6); format: in vivo; conditions: 100 IU/day ip 40 days starting 21 days after DMBA, Regimens 5, 6
Description: (§6) Evaluation of the therapeutic efficiency of r-hCG on mammary cancer. The tumoristatic and tumoricidal efficacy of r-hCG and u-hCG on early and advanced mammary cancer was tested in intact virgin rats that had received a single dose of DMBA when they were 45 days old (FIG. 4, Regimens 4–9). The effect on early tumor development was tested under Regimens 4, 5, and 6. It was evaluated by initiating r-hCG treatment 20 days after DMBA administration, when early lesions, such as intraductal proliferations (IDPs) and carcinomas in situ (CIS) are already present, but there are no palpable tumors as yet. The effect on advanced tumor development was evaluated by starting the hormonal treatment 60 days after DMBA administration, or when palpable tumors had reached at least 1 cm in maximal diameter (Regimens 7, 8, and 9). In both groups the hormone was administered for 40 days and final tumorigenic response was evaluated 20 weeks post-DMBA administration. The effect of the hormonal treatment on the rate of tumor growth, with special emphasis on tumor regression, absence of skin ulceration, and final tumor size and necrosis were evaluated at the time of assessment of the final tumorigenic response.
(§7) For Regimens 4–9, 300 animals were inoculated with a single ig dose of 8 mg DMBA/100 g bw when they were 45 days old. Tumorigenic response was evaluated by palpation of the right and left mammary cervical, thoracic, abdominal and inguinal areas and from ventral to dorsolateral extensions of the glands. All tumors were sequentially numbered in the order they had appeared, their location was recorded, and the rate of tumor growth was determined by measurement of tumor size with a Vernier caliper. All changes in the health status of the animals, rapid tumor growth or skin ulceration were recorded. Those animals in which the tumors were excessively large or became ulcerated were euthanized, irrespectively of the stage of the hormonal treatment, in compliance with IACUC regulations. Those animals that were euthanized before initiation or before the completion of the hormonal treatments were deleted from the statistical analysis of the final tumorigenic response.
Regimens 4–6 were designed for testing the effect of the hormonal treatments on early tumor development. Twenty one days after DMBA administration those animals allocated to Regimen 4 started receiving a daily ip injection of 0.5 ml placebo for 40 days. Under Regimens 5 and 6 the same number of animals received for 40 days 100 IU/day of r-hCG or u-hCG, respectively. All the animals were palpated biweekly for detection of tumor development and determination of tumor growth rate. Final tumorigenic response was evaluated 20 weeks after administration of DMBA.
as §1, §2, §3, §4, §5

[7] = tested on: DMBA-induced rat mammary carcinomas; assay: Effect on advanced (palpable) tumor development after DMBA (Regimens 7-9); format: in vivo
Description: as §6, §7
Regimens 7–9 tested the effects of r-hCG and u-hCG on late (palpable) tumor development: Sixty days after DMBA inoculation, when the rats were 105 days old, animals allocated to Regimen 7 started receiving a daily ip injection of 100 IU/day r-hCG for 40 days. Under Regimens 8 and 9 the same number of animals received for 40 days 100 IU/day of u-hCG or 0.5 ml placebo, respectively. Tumorigenic response was evaluated by biweekly palpation. All tumors were sequentially numbered, their location was recorded, and the rate of tumor growth was determined by measurement of tumor size with a Vernier caliper. Final tumorigenic response was evaluated 20 weeks after administration of DMBA.
as §1, §2, §3, §4, §5

[8] = tested on: neoplastic cell lines from various organs or systems; conditions: urinary hCG from various sources; cited from earlier work
[9] = tested on: breast cancer cells; conditions: cited from earlier work
[10] = tested on: breast cancer; conditions: women treated for infertility or weight loss; cited from earlier work
[11] = tested on: Kaposi's sarcoma; conditions: injected into mice; cited from earlier work
[12] = tested on: neoplastic KS cells; conditions: cited from earlier work
[13] = 100 IU/day ip 21 days before DMBA, Regimens 2, 3
[14] = 100 IU/day ip 40 days starting 60 days after DMBA, Regimens 7, 8

Substance: hCG: human chorionic gonadotropin, source (urinary or recombinant) not stated at the place
- patients with positive effect on the course of the illness [1]: more than 50%
- effect on cell growth at 10 IU/ml, hCG used alone ([2]; 10 IU/ml hCG alone): practically ineffective
- effect on cell growth at 10 IU/ml combined with the anti-estrogen ([2]; 10 IU/ml hCG with Tamoxifen): efficacious
- dose at which the inhibitory effect significantly increases ([2]; hCG alone, six days of treatment): 1000 IU/ml
- concentration from which inhibition of cell proliferation is evident ([2]; hCG alone, three days of exposure): ≥ 100 IU/ml
- inhibition of cell proliferation with respect to control ([2]; pretreated 1 week with highest concentration of hCG, third day after TAM): approximately 50%
- inhibition of cell proliferation with respect to control ([2]; pretreated 1 week with lowest concentration of hCG, sixth day after TAM): about 65%
- tumor development, treatment after exposure to carcinogens ([3]; hCG treatment of rats after carcinogen): protected them from tumor development
- proliferation of normal and neoplastic human breast epithelial cells [4]: inhibits the proliferation

Substance: u-hCG: urinary human chorionic gonadotropin, obtained from the urine of pregnant women (Steris Laboratories)
- No. Tumors/Animal [5, 13]: 0.14
- Percentage (animals with tumors) [5, 13]: 12.0
- Total No. Tumors [5, 13]: 7
- No. An. With Tumors ([5]; 100 IU/day ip 21 days from age 45 days, DMBA 21 days after last injection, 15 weeks post-DMBA): 6/50 and 6
- No. An. With Tumors ([6]; 20 weeks post-DMBA): 30/46 and 30
- No. Tumors/Animal [6]: 1.9
- Percentage (animals with tumors) [6]: 65.2
- Total No. Tumors [6]: 88
- No. Tumors/Animal (total animals at risk) [7, 14]: 3.4
- Percentage (animals with tumors) [7, 14]: 88.8
- Total No. Tumors [7, 14]: 122
- reduction of tumor burden ([7]; treatment initiated 60 days after DMBA, vs placebo): 40%
- chemically-induced mammary tumorigenesis ([3]; preventive agent): inhibits chemically-induced mammary tumorigenesis
- incidence of carcinoma-induced mammary tumors ([3]; rats pre-treated with daily doses for several weeks before tumor induction): reduced
- effect on neoplastic cell lines from various organs or systems [8]: inhibitory effect
- cell death of breast cancer cells in vitro [9]: induction of cell death
- incidence of breast cancer [10]: reduced incidence of breast cancer
- effect in mice having established, metastatic Kaposi's sarcoma [11]: anti-proliferative effect
- effect in the in vivo animal model or in vitro assay on KS cells [12]: Neither purified urinary nor purified recombinant hCG, subunits or fractions of hCG had any effect
